B2AR arrestin: beta2AR (human) beta-arrestin recruitment activity. hit rate 0.02% among 330,000. Potency, µM (doses to about 46.1 µM), inactives show at the highest dose activation, usual class: activators. P07550. beta-arrestin recruitment to beta2AR, cell-based reporter;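 also: potency is read from the fitted curve at half-maximal effect; 0% = DMSO controls and full agonism = EC100 isoproterenol or metaproterenol; nearly all actives have a fitted effect of over 65% in size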
Nrf2 ARE act: Nrf2 pathway activation | AREc32 ARE-luciferase reporter (MCF7-derived line), luminescence, 24 h | Potency, µM (top dose mostly 46.1 µM), inactives show at the highest dose activation, usual class: activators | hit rate 0.31% among 410,000 | AID 624171; also: potency is read from the fitted curve at half-maximal effect; % of control where 0% means no effect; nearly all actives have a fitted effect of over 65% in size
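Each well held 1000 AREc32 cells, which were incubated with compound for 24 hr at 37 deg C after overnight attachment, and ARE reporter activity was quantified by firefly luciferase luminescence.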
Nrf2 block: blocks Nrf2 signaling; hit rate 2.1% among 360,000; AID 504444; Potency, µM (doses to about 46 µM), without a hit: at the highest dose activity change, negative = inhibition, most hits filed as inhibitors; A549 ARE-Fluc reporter, luciferase luminescence, 18-24 h; also: potency is read from the fitted curve at half-maximal effect; % is scaled to controls: 0 for no effect and ±100 for the full control effect; nearly all actives have a fitted effect of over 60% in size
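Concentration-response testing used A549 ARE_Fluc cells at 5000 cells/well. Following an 18-24 h compound incubation, viability was read by fluorescence (Ex 405/Em 525) and luciferase output by luminescence.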
A549 viability: A549 cytotoxicity, counter-screen for Nrf2 inhibitors; A549 ARE-Fluc cells, CellTiter-Fluor viability, 18-24 h; Potency, µM (highest dose often 46 µM), without a hit: top-dose activity change, negative = cytotoxicity, usual class: inhibitors; hit rate 0.16% among 390,000; also: potency is read from the fitted curve at half-maximal effect; % is scaled to controls: 0 for no effect and ±100 for the full control effect
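A549 ARE_Fluc cells in 5% FBS OPTI-MEM were exposed to compounds in concentration-response for 18-24 h at 37 deg C. Viability was read by CellTiter-Fluor fluorescence (Ex 405/Em 525) after 30 min, before the luciferase read.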
miR-21 FLuc: miR-21 reporter, rising signal; HeLa miR-21 FLuc reporter, luciferase, 48 h; Potency, µM (titrated, usually from 38.3 µM), for the others: at the top dose reporter change, positive = more light; 340,000 tested, under 10 active; AID 2288; active = well fitted rising curve with a large enough effect; inconclusive = small, poorly fitted or top-dose-only effect; inactive = no such curve, though single readings can be large or run the other way;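 also: % of control where 0% means no effect; miR-21 action dims this reporter so a rising signal means less miR-21 action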
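HeLa cells stably expressing CMV-driven firefly luciferase with a downstream miR-21 binding sequence, endogenously expressing miR-21, were treated with titrations (up to about 40uM final) for 48 hours at 37 degree Celsius. Luciferase luminescence was read after lysis.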
An asterisk follows results filed as active; ? = inconclusive; · = no result given. Only some compounds are listed: those with a hit (about 2.2% of all), similar ones and a draw of the others. Unless noted, calls follow the shape of the dose curve; as a rule, active = well fitted curve in the direction sought with a large enough effect; inconclusive = small, poorly fitted or top-dose-only effect, or another doubt; inactive = no such curve, though single readings can be large; an effect the other way counts as inactive or inconclusive.

SMILES	B2AR arrestin	Nrf2 ARE act	Nrf2 block	A549 viability	miR-21 FLuc
Cc1ccccc1OCC(=O)Nc1ccc(Cc2ccncc2)cc1	0%	0%	13µM*	5%	3%
CSc1ccccc1NC(=O)COc1ccccc1C	0%	9%	?	6%	-56%
COc1cc2c(cc1OC)C(COc1ccccc1OC)N(C(=O)COc1ccc(Cl)cc1)CC2 (stereo unspecified)	·	1%	·	-1%	18%
COc1ccccc1NC(=O)c1cc2c(=O)oc3ccc(C)cc3c2s1	·	0%	1%	-3%	-4%
COc1cc(/C=C/C(=O)c2ccc(NS(=O)(=O)c3ccc(C)cc3)cc2)cc(OC)c1O	0%	?	23µM*	?	?
CCOC(=O)N1CCN(C(=O)c2ccc(CSc3ccc(Cl)cc3)cc2)CC1	0%	5%	18µM*	-24%	1%
CN1CCN(C(=O)c2ccc(Oc3ccc([N+](=O)[O-])cc3)cc2)CC1	0%	0%	-20%	0%	2%
CN(c1ccc(C(=O)N2CCCCCC2)cc1)S(=O)(=O)c1ccc(Cl)cc1	-1%	-1%	23µM*	-9%	17%
CCOC(=O)N1CCN(C(=O)c2ccc(Oc3ccc([N+](=O)[O-])cc3)cc2)CC1	-1%	4%	26µM*	-9%	5%
CN(c1ccc(C(=O)N2CCOCC2)cc1)S(=O)(=O)c1ccc(Cl)cc1	0%	0%	?	-1%	-3%

The closing 4 entries of the part above open the next one:
SMILES	B2AR arrestin	Nrf2 ARE act	Nrf2 block	A549 viability	miR-21 FLuc
CN1CCN(C(=O)c2ccc(Oc3ccc([N+](=O)[O-])cc3)cc2)CC1	0%	0%	-20%	0%	2%
CN(c1ccc(C(=O)N2CCCCCC2)cc1)S(=O)(=O)c1ccc(Cl)cc1	-1%	-1%	23µM*	-9%	17%
CCOC(=O)N1CCN(C(=O)c2ccc(Oc3ccc([N+](=O)[O-])cc3)cc2)CC1	-1%	4%	26µM*	-9%	5%
CN(c1ccc(C(=O)N2CCOCC2)cc1)S(=O)(=O)c1ccc(Cl)cc1	0%	0%	?	-1%	-3%
COc1cc(/C=C/C(=O)c2ccc(NS(=O)(=O)c3ccc(C)cc3)cc2)ccc1OC(F)F	-1%	?	4%	-2%	?
Cc1ccc(NS(=O)(=O)c2ccc(C(=O)N3CCCCCCC3)cc2)cc1	0%	0%	21µM*	-7%	-16%
O=C(c1ccc(S(=O)(=O)Nc2ccccc2)cc1)N1CCCC(C(F)(F)F)C1 (stereo unspecified)	0%	0%	26µM*	?	10%
CCOC(=O)N1CCN(C(=O)c2ccc(S(=O)(=O)Nc3ccc(C)cc3)cc2)CC1	5%	0%	10µM*	-16%	·
O=C(OCC#CCSc1nnc(-c2cccc(F)c2)o1)c1ccc(F)cc1	·	·	3%	2%	·
O=C(NCc1ccccc1Br)c1ccc(-n2cnc3cccnc32)cc1	·	-1%	-17%	10%	2%
Cc1ccc(C2CN(C)C3(C(=O)Nc4ccccc43)C23COc2ccccc2C3=O)cc1 (stereo unspecified)	-1%	3%	?	1%	20%
CN1CC(c2ccccn2)C2(SC(=S)N(Cc3ccccc3)C2=O)C12C(=O)Nc1ccccc12 (stereo unspecified)	0%	2%	23µM*	0%	19%
CN1CC(c2ccccc2)C2(SC(=S)N(Cc3ccco3)C2=O)C12C(=O)Nc1ccccc12 (stereo unspecified)	0%	3%	12µM*	?	?
COc1ccc(Cl)cc1NS(=O)(=O)c1cccc2cccnc12	0%	13µM*	?	-4%	-4%
COc1ccc(OC)c(NS(=O)(=O)c2cccc3cccnc23)c1	0%	27%	?	2%	6%
Cc1cc(OC(C)C(=O)N(Cc2ccco2)Cc2ccco2)cc(C)c1Cl (stereo unspecified)	·	0%	-27%	8%	14%
COc1ccc(Cl)cc1C(=O)Nc1ccc(-c2nnc3n2CCCCC3)cc1	·	0%	23µM*	-14%	-2%
CCOc1ccc(C(=O)Nc2ccc(-c3nnc4n3CCCCC4)cc2)cc1OCC	·	0%	-19%	6%	-3%
CCn1c(=O)n(CC)c2cc(N3CCCC3)c(NC(=O)c3cc(Cl)ccc3OC)cc21	0%	0%	21µM*	?	2%
CCC1CC=CC2C1C(=O)N(Cc1ccccc1)C2c1cc(C)ccc1F (stereo unspecified)	·	·	-22%	-6%	·
COc1ccc(NC(=O)c2c(NCc3ccc(N(C)C)cc3)sc3c2CCC3)cc1	·	15%	·	-1%	4%
Cc1cccc(N2CCN(C(=O)c3ccc4nc(-c5ccco5)c(-c5ccco5)nc4c3)CC2C)c1 (stereo unspecified)	0%	-2%	21µM*	?	25%
